Sequences of proteins named here, by UniProt entry; tags and fusion partners are left off.
UniProt P78527, whole entry: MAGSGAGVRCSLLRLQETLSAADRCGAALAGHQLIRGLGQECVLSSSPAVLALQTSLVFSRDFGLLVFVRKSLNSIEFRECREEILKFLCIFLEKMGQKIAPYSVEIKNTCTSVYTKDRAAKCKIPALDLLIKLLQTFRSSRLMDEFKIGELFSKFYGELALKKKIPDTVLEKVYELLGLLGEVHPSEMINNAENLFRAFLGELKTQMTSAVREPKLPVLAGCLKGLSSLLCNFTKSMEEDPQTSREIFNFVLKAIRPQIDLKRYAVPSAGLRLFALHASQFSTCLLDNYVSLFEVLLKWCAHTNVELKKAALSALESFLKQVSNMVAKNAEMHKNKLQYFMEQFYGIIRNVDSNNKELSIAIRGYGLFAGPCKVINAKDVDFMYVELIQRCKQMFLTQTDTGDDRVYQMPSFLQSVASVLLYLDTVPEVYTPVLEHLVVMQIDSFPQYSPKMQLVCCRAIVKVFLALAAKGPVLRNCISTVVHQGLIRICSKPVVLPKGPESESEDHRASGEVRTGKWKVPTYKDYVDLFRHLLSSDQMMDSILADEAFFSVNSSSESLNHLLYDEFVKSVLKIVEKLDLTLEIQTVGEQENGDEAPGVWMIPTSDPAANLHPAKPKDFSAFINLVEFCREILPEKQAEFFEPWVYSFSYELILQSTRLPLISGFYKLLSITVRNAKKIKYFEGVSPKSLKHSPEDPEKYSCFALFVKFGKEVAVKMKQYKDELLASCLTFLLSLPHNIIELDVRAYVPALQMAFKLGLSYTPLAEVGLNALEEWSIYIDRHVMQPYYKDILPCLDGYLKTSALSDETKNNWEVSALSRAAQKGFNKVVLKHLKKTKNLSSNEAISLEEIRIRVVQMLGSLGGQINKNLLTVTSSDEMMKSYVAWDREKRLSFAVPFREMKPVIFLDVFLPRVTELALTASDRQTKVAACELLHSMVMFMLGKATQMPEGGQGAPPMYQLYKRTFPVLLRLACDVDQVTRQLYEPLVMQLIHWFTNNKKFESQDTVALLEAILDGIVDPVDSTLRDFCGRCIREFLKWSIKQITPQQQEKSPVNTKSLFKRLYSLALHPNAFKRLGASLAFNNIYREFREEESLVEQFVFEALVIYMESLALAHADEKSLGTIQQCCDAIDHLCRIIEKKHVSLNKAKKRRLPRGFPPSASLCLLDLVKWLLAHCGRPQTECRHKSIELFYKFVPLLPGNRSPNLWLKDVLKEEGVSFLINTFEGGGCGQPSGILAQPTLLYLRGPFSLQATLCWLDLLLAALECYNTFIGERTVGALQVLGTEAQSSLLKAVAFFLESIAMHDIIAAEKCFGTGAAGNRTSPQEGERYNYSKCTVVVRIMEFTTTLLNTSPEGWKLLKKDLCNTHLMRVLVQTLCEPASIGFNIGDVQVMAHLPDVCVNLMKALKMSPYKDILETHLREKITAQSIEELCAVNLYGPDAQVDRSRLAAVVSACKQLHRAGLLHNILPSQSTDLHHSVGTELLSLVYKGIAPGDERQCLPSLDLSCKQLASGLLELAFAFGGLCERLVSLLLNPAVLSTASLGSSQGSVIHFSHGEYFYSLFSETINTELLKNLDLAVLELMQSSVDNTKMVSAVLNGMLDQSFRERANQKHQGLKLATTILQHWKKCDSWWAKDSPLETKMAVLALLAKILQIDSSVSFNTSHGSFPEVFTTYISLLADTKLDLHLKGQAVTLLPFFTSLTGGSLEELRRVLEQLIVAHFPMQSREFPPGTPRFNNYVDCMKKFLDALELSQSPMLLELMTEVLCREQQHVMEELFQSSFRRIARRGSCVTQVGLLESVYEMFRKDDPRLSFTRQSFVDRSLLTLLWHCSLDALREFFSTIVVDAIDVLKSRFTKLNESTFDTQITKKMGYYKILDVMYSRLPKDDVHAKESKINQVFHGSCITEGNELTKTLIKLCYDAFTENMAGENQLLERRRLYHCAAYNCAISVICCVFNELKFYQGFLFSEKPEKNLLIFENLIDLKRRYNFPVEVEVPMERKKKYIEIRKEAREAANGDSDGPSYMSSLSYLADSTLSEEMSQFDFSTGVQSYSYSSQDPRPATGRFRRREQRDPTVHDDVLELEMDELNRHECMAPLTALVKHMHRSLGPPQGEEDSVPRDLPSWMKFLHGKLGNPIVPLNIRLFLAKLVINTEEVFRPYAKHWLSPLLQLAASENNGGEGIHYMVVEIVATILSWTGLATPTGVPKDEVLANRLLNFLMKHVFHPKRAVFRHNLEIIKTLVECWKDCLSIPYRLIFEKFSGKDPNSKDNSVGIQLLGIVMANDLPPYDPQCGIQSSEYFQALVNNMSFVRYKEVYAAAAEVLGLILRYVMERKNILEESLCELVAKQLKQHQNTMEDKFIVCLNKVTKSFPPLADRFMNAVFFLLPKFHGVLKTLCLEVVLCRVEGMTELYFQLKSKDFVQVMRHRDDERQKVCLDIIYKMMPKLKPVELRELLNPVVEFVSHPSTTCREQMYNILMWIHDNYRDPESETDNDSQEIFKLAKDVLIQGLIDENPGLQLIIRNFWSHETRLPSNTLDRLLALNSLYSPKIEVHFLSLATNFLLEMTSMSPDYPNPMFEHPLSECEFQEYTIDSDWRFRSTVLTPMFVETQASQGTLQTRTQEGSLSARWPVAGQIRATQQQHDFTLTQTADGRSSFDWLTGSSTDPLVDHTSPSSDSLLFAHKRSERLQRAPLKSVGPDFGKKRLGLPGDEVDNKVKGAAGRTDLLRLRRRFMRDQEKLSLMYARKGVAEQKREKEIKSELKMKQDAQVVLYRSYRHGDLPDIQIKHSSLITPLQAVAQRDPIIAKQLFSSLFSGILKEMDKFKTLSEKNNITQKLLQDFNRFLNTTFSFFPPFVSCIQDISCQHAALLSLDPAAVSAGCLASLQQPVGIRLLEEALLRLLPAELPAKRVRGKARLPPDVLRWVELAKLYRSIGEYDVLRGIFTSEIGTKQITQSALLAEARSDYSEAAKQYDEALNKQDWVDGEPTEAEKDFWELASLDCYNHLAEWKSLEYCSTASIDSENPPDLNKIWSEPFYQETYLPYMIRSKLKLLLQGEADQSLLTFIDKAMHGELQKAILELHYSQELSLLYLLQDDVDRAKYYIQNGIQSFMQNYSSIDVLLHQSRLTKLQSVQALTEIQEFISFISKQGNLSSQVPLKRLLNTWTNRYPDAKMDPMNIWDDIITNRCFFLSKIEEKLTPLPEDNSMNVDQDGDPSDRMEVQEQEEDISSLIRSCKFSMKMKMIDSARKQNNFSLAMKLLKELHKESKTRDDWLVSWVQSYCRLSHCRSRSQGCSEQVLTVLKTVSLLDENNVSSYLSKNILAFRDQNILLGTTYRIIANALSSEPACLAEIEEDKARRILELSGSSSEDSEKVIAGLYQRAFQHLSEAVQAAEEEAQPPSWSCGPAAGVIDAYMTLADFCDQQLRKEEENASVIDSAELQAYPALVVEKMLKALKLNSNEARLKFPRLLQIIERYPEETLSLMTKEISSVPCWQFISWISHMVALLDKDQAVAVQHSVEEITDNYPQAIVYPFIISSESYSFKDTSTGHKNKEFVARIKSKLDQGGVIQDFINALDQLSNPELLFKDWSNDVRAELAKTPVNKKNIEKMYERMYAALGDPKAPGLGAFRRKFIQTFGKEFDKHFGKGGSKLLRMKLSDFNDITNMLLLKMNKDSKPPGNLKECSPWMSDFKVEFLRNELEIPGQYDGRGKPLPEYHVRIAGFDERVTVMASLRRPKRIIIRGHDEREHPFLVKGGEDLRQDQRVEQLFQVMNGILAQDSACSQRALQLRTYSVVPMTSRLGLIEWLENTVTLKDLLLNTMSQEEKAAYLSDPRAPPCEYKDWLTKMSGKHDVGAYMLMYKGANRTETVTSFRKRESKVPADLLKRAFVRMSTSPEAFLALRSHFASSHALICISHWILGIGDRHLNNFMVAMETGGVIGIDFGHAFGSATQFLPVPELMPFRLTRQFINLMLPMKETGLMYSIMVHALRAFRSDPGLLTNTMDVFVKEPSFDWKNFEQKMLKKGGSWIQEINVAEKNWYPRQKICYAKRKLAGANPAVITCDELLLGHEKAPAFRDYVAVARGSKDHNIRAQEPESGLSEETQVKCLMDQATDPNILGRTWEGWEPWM
UniProt P12956, whole entry partner: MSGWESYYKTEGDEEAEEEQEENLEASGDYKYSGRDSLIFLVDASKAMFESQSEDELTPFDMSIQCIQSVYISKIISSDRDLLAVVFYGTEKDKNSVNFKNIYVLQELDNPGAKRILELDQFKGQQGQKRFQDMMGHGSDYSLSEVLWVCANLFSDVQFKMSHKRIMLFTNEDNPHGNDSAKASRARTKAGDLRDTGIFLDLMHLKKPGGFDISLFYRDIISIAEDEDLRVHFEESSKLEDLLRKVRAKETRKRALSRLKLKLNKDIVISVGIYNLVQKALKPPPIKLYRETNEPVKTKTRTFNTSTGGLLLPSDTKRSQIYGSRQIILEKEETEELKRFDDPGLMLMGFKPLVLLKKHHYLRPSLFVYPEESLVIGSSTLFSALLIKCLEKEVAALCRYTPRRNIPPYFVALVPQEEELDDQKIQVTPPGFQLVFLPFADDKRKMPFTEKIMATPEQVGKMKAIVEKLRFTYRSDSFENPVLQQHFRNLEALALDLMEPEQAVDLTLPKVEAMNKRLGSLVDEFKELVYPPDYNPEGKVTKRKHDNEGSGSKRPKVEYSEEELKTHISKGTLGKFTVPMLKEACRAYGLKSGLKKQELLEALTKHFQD
UniProt P13010, whole entry partner: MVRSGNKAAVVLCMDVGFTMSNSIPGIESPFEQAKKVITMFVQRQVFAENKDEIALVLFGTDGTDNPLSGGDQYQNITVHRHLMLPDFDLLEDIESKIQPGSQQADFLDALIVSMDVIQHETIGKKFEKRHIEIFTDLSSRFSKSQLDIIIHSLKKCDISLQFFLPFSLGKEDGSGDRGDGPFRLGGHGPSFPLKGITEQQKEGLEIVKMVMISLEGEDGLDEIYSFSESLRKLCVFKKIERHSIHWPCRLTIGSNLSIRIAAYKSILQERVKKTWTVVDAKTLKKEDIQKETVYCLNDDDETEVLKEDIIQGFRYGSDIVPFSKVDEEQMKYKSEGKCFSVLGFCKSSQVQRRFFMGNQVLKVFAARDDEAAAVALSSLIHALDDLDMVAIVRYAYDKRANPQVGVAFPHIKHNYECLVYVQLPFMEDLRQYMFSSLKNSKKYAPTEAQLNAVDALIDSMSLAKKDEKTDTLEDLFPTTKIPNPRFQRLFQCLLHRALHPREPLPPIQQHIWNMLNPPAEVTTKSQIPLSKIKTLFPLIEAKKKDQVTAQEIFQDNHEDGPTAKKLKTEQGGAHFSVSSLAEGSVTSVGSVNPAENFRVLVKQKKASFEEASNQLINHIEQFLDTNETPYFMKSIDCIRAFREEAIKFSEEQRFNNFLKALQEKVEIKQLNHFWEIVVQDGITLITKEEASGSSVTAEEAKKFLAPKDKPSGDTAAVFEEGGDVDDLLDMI

In US20090042865A1, “DNA-PK INHIBITORS” (priority 2007, published 2009):

Biological target: DNA-PK (Homo sapiens, UniProt P78527)
Assay: DNA-PK inhibition assay (ELISA, phosphorylation of GST-p53N66)
Conditions: read-out: IC50 (mean IC50 of the compounds), DNA-PK from HeLa nuclear extract, 50 μM ATP

Structure (SMILES) | IC50 [nM]
N#CCN1CCN(c2ccc(-c3cccc4c(=O)cc(N5CCOCC5)oc34)c3sc4ccccc4c23)CC1 | 20
CC(C)(C)C(=O)ONCCN1CCN(c2ccc(-c3cccc4c(=O)cc(N5CCOCC5)oc34)c3sc4ccccc4c23)CC1 | 11
